## Apparent affinities of Ab-14 variants for a coronavirus HR2 peptide

The target is the same throughout: PDVDLGDISGINAS, from the HR2 region of SARS-CoV-2 spike.

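The starting antibody came from a phage panning campaign against this peptide. The variants were designed computationally from a first round of random CDR variants and then made and measured. Their group label is 14L_En_Gen (En: ensemble of fine-tuned language models; Gen: genetic algorithm). Affinity was read by AlphaSeq, a pooled yeast mating assay with surface-displayed partners. Mating (16 h, 30 °C) was followed by selection of diploids and sequencing of their barcodes. Scores were corrected for input abundance and mapped to Kd with protein pairs of known affinity run in the same pool. Each pool was mated in six replicate cultures.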

Parent scFv Ab-14: VH joined to VL by the linker GGGGSGGGGSGGGGS. Changes lie in the light chain CDRs alone.
VH: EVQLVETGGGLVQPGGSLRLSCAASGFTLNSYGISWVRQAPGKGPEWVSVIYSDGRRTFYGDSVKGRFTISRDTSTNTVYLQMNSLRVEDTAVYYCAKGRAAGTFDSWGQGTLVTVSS
VL: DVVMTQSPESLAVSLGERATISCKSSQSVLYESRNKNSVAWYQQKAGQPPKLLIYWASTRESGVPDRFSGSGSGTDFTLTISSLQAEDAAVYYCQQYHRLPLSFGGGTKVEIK

Each variant is given by its three light chain CDRs, as the data file delimits them; those of the parent are KSSQSVLYESRNKNSVA, WASTRES, QQYHRLPLS.
Scale: log10 of Kd in nM, estimated from mating counts; low values are strong binders.
"nd" means that the variant was in the library but no mating with the target was seen in that replicate; the authors take this as a sign of poor binding, and no number exists.
The parent sequence was in this pool as ten entries: three were never detected, three once, and four in most replicates, with averages from 0.34 to 2.37.
Values of this round are not directly comparable with the first-round values of the same sequences.
Nonspecific signal, from three strains lacking the peptide, appeared in 4% of pairings of all light chain designs, centred on 2.64 (5% of these signals below 1.59); values are not corrected for it. The control count says in how many pairings with the empty strains this scFv gave a signal, with their mean in brackets.
The authors' rule: three or more of the six replicates give a measured affinity, fewer mean a poor binder.

| CDR-L1 | CDR-L2 | CDR-L3 | log10 Kd, replicates | signal with controls |
|---|---|---|---|---|
| KIGMTLNTLLHQKNNVA | DLVNREN | QQYFRLPLS | -0.01 / 0.15 / -0.22 / -0.05 / 0.09 / 0.17 | 0 of 18 |
| KIGMTLNQLLEKKNNVA | DLVHREN | QQYHRLPLS | 0.72 / 0.18 / 0.03 / 0.35 / 0.64 / 0.40 | 0 of 18 |
| KISGLSNHQSSVSNNVA | ENVTRVN | QQYFRLPLA | 1.38 / 1.05 / 1.08 / 1.40 / 1.21 / 1.24 | 3 of 18 (3.36) |
| KISQITGHLSMSKNNVA | EMVTREN | QQYDRLPLS | 1.07 / nd / nd / 2.88 / nd / 1.88 | 0 of 18 |
| MISQLYNMGTFAINSVA | QASIRNA | QQYDRLPLT | nd / nd / nd / nd / nd / nd | 0 of 18 |
| KVSEFMRGLMMRKDSIA | DNVTRNN | QQYDRLPLS | 1.98 / 2.20 / 1.89 / 1.81 / 1.63 / 2.43 | 3 of 18 (2.53) |
| TLYGLTLSMSKNVNSVA | EMTTREK | QQYDRLPLS | 0.91 / 1.08 / 0.74 / 0.75 / 0.42 / 0.71 | 0 of 18 |
| HMSMLTMMGMKQRNSVA | QMTMREN | QQYDRLPLM | 0.88 / 0.91 / 1.09 / 0.83 / 0.95 / 0.86 | 0 of 18 |
| MISQLYNMGQFAINSVA | QATERNE | QQYDRLPLI | 1.39 / 1.91 / 1.53 / 1.53 / 1.92 / 1.15 | 2 of 18 (2.65) |
| IVSQLMLWGIHAKNSIA | EAQMRLN | QQYDRLPLM | nd / nd / nd / nd / nd / nd | 0 of 18 |
| TIGASLMFGTRNRNNVA | EVSERLN | QQYDRLPLF | 0.36 / 0.18 / 0.10 / 0.18 / 0.16 / 0.56 | 2 of 18 (2.48) |
| KIGLTLNTLMHQKNNVA | DLVTREN | QQYFRLPLS | nd / 1.93 / 1.15 / 1.27 / nd / 1.87 | 0 of 18 |
| TIGSTLMYGMRNRSNVA | EVSERLN | QQYDRLPLM | 2.00 / 1.74 / 1.90 / 2.04 / 2.26 / 1.99 | 0 of 18 |
| TIGSTLMYGMRNRNNVA | EVSERLN | QQYDRLPLL | 1.07 / 0.77 / 0.86 / 0.62 / 0.90 / 1.02 | 1 of 18 (3.40) |
| MISQLYNMGQFAINSVA | QASERSE | QQYDRLPLQ | 1.89 / 1.39 / 0.98 / 1.16 / 2.01 / 1.27 | 0 of 18 |
| TIGAQLMYGMRQRSNVA | EVSERLN | QQYDRLPLL | 0.86 / 1.58 / 0.92 / 1.28 / 0.66 / 1.56 | 2 of 18 (2.34) |
| TLSHMSGLEAVKHNSVA | ENSTREK | QQYDRLPLA | nd / nd / nd / nd / nd / nd | 0 of 18 |
| KISQMTRVGMTHSNSIA | EEVTRAK | QQYHRLPLA | 1.63 / 0.95 / 1.09 / 0.85 / nd / 1.96 | 0 of 18 |
| MVNGILDHMSKNTNSVA | ETSTRES | QQYDRLPLF | 0.08 / -0.11 / 0.67 / 0.05 / 0.14 / 1.17 | 0 of 18 |
| KISMLHNQTFNQSNNVA | EMVTREK | QQYNRLPLS | 1.53 / 2.07 / 1.44 / 1.93 / 1.96 / 2.38 | 2 of 18 (3.01) |
| IVSQLMLWGMHAKNSIA | EAEMRIN | QQYHRLPLF | nd / nd / nd / nd / nd / nd | 0 of 18 |
| TLYGLSMSMSKNKNNVA | EMTTRLK | QQYDRLPLV | 0.47 / 0.60 / 0.77 / 0.86 / 0.92 / 0.48 | 0 of 18 |
| KLTSITGTEKVHGNNVA | EMETRES | QQYNRLPLS | 0.16 / 0.16 / 0.14 / 0.01 / -0.04 / 0.50 | 2 of 18 (3.86) |
| MMQQVWGMGQRHRNNVA | QTSTREE | QQYDRLPLI | 0.62 / 0.31 / 0.37 / 0.41 / 0.50 / 0.37 | 2 of 18 (2.39) |
| KISMTTEMELKNRNSVA | ELVTRLN | QQYNRLPLS | 0.48 / 0.86 / 0.79 / 0.71 / 1.05 / 0.90 | 1 of 18 (2.62) |
| TISQMTSLFSQSINNVA | EVSTREQ | QQYDRLPLM | 2.10 / 1.35 / 0.74 / 0.15 / 0.76 / 0.66 | 0 of 18 |
| TISGVMQTSSHIKNNVA | EVSMRCK | QQYVRLPLA | 1.57 / 1.09 / 1.85 / 1.26 / 1.41 / 1.37 | 1 of 18 (2.34) |
| KLSMITGHMSVSKNNVA | EMATREN | QQYNRLPLS | 0.16 / 0.21 / 0.02 / 0.62 / 0.49 / 0.77 | 1 of 18 (1.88) |
| TITMFMDNASHNRNNVA | DTSTLGS | QSYDRLPLS | 1.37 / 1.14 / 1.28 / 1.18 / 1.75 / 1.78 | 3 of 18 (2.65) |
| NIYQAMHTLSQMKDNVA | DVNERGN | QQYYRLPLS | 0.19 / 0.38 / 0.47 / 0.00 / 0.17 / 0.08 | 0 of 18 |
| MLGESYGMMVQKKSSIA | DNSTRED | QQYDRLPLS | 0.61 / 1.28 / 0.27 / 1.35 / 0.66 / 0.82 | 0 of 18 |
| MLSQMTGLGMKAKNSVA | QANMRFD | QQYHRLPLV | 1.02 / 0.45 / 1.05 / 0.71 / 0.86 / 0.70 | 0 of 18 |
| KVSEFMKGLMMRTDSIA | DNTTRQQ | QQYDRLPLS | 1.88 / 2.00 / 1.98 / 2.34 / 3.49 / 2.44 | 2 of 18 (2.30) |
| KLTNVTGTEKVLGNNVA | EMETREE | QQYNRLPLS | nd / 1.24 / 1.23 / 1.69 / 1.74 / 0.90 | 0 of 18 |
| TIGQTLMYGMRNRSNVA | EVSQRLN | QQYDRLPLL | 1.95 / 1.69 / 1.88 / 1.60 / 1.42 / 1.98 | 1 of 18 (5.15) |
| NIYQAMHTLSQMKDNVA | DVNERGD | QQYFRLPLS | 0.15 / 0.08 / -0.02 / 0.01 / -0.04 / 0.10 | 1 of 18 (2.70) |
| MIHESYGLMSHKQSSIA | DNSTREE | QQYDRLPLS | nd / nd / nd / nd / 2.34 / nd | 0 of 18 |
| KLTNVTGTEKVHGNNVA | EMETRER | QQYNRLPLA | 0.70 / 0.92 / 0.49 / 0.50 / 0.94 / 0.75 | 2 of 18 (2.91) |
| KLSMVTGHMSKAKNNVA | EMETREN | QQYDRLPLS | 0.04 / 0.04 / 0.07 / -0.04 / 0.10 / 0.25 | 0 of 18 |
| QISGITGHMSMIKNNVA | EMETREN | QQYERLPLS | 0.41 / 0.15 / 0.05 / 0.00 / 0.33 / 0.35 | 1 of 18 (2.92) |
| KIGMTLNQLYEKVNNVA | DLVTREN | QQYHRLPLS | 0.24 / 0.14 / 0.06 / -0.02 / 0.14 / 0.08 | 1 of 18 (2.88) |
| KLSMITGHMQMAKNNVA | EMVTREN | QQYNRLPLS | 0.01 / -0.03 / -0.09 / -0.08 / 0.12 / -0.09 | 0 of 18 |
| IVSQLMLWGYHAKNSIA | EAEKRLN | QQYERLPLF | nd / nd / nd / nd / nd / 2.05 | 1 of 18 (1.90) |
| MVNNIMDHLSKQTNNVA | ETVTREE | QQYDRLPLT | nd / nd / nd / nd / nd / nd | 0 of 18 |
| MISQLTNMGQFAINSVA | QASIRNE | QQYDRLPLM | 1.16 / 0.49 / 0.45 / 0.74 / 2.03 / 0.75 | 1 of 18 (1.69) |

For reference, 3 entries of the list once more:

{"CDR-L1": "MLGESYGMMVQKKSSIA", "CDR-L2": "DNSTRED", "CDR-L3": "QQYDRLPLS", "log10 Kd, replicates": "0.61 / 1.28 / 0.27 / 1.35 / 0.66 / 0.82", "signal with controls": "0 of 18"}
{"CDR-L1": "MMQQVWGMGQRHRNNVA", "CDR-L2": "QTSTREE", "CDR-L3": "QQYDRLPLI", "log10 Kd, replicates": "0.62 / 0.31 / 0.37 / 0.41 / 0.50 / 0.37", "signal with controls": "2 of 18 (2.39)"}
{"CDR-L1": "KLTNVTGTEKVLGNNVA", "CDR-L2": "EMETREE", "CDR-L3": "QQYNRLPLS", "log10 Kd, replicates": "nd / 1.24 / 1.23 / 1.69 / 1.74 / 0.90", "signal with controls": "0 of 18"}

Source: Li et al. 2023 (doi:10.1038/s41467-023-39022-2), MIT Lincoln Laboratory and A-Alpha Bio; data file from the FLAb repository.